# Reference: patent US12280125B2, “Method for delivering insulin” (Imam Abdulrahman Bin Faisal University, priority 2022, dated 2025)
# Test system: Human foreskin fibroblast (HFF-1) cells
# Assay: MTT cell viability (toxicity study)
# Conditions: in comparison to DMEM-treated cells (100%)
substance,measurement,value
insulin,Cell growth (cell viability),130%
